From patent US11958861B2, “Spirocyclic lactams as JAK2 V617F inhibitors” (Incyte Corporation, priority 2021, dated 2024)

The chains behind the UniProt entries cited, without tags or fusion partners. Residues count along the entry.
UniProt O60674, 536-812 V617F/W659A/W777A/F794H: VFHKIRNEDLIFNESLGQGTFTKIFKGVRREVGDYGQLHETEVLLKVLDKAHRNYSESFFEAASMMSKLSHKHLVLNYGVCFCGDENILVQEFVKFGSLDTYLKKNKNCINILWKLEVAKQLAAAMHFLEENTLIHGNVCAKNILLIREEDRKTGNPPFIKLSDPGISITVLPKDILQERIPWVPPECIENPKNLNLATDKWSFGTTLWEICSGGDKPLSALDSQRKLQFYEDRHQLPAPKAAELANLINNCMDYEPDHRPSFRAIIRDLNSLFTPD
UniProt O60674, 826-1132: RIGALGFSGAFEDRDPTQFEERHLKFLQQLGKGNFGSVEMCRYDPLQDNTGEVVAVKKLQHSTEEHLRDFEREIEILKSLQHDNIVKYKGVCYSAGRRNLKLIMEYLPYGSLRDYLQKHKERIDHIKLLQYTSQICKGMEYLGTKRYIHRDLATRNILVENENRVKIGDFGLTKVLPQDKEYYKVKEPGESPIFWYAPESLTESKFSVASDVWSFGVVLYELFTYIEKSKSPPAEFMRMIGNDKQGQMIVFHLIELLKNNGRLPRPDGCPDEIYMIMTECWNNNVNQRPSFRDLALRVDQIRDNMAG
UniProt O60674, 536-812 W659A/W777A/F794H: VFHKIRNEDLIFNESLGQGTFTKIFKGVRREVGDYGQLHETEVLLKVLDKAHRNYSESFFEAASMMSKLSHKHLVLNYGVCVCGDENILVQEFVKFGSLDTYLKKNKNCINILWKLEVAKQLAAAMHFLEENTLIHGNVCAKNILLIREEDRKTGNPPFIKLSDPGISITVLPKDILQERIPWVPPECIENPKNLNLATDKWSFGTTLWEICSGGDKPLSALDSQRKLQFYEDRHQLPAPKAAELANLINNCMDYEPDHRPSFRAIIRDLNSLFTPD
UniProt O60674, 808-1132: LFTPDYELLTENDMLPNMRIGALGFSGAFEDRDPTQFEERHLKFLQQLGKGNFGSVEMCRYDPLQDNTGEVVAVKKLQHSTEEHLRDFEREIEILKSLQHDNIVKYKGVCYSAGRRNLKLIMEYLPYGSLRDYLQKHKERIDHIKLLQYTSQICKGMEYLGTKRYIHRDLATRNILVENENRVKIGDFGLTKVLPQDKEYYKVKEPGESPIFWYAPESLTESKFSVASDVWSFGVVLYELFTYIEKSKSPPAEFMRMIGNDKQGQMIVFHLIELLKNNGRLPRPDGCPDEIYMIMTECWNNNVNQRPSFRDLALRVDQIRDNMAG

Key:
[1] = target: T1, pseudo-kinase domain (JH2, amino-acids 536-812) of human V617F mutant JAK2 (Homo sapiens, UniProt O60674, F794H/V617F/W659A/W777A); assay: JAK2 LanthaScreen JH2-V617F Binding Assay; conditions: 1 hour at 25° C.
T1 construct: pseudo-kinase domain (JH2, amino-acids 536-812 with 3 surface mutations W659A, W777A, F794H); purchased BPS Bioscience 79498; host or cells: baculovirus expression system
Description: Example C. JAK2 LanthaScreen JH2-V617F Binding Assay
(§1) JAK2 JH2-V617F binding assay utilizes pseudo-kinase domain (JH2, amino-acids 536-812 with 3 surface mutations W659A, W777A, F794H) of human V617F mutant JAK2 expressed as C-terminal His-Avi-tagged, biotinylated protein in a baculovirus expression system (BPS Bioscience, Catalog #79498). The assay was conducted in black 384-well polystyrene plates in a final reaction volume of 20 μL. JAK2 JH2-V617F (0.26 nM) was incubated with compounds (100 nL serially diluted in DMSO) in the presence of 50 nM Fluorescent JAK2-JH2 Tracer (MedChem Express Catalog #HY-102055) and 0.25 nM Streptavidin-Tb cryptate (Cisbio Part #610SATLB) in assay buffer (50 mM Tris, pH=7.5, 10 mM MgCl2, 0.01% Brij-35, 0.1% BSA, 1 mM EGTA, 5% Glycerol and 5 mM DTT). Non-specific binding was accessed in the presence of 2 mM ATP. After incubation for 1 hour at 25° C., LanthaScreen signals were read on a PHERAstar FS plate reader (BMG LABTECH). Data was analyzed with IDBS XLfit and GraphPad Prism 5.0 software using a four parameter dose response curve to determine IC50 for each compound.

[2] = target: T2, catalytic domain (JH1, amino acids 826-1132) of human JAK2 (Homo sapiens, UniProt O60674); assay: JAK2 LanthaScreen JH1 Binding Assay; conditions: 2 hours at 25° C.
T2 construct: catalytic domain (JH1, amino acids 826-1132) of human JAK2; purchased Carna Biosciences 08-445-20N; host or cells: baculovirus expression system
Description: Example A. JAK2 LanthaScreen JH1 Binding Assay
JAK2 JH1 binding assay utilizes catalytic domain (JH1, amino acids 826-1132) of human JAK2 expressed as N-terminal FLAG-tagged, biotinylated protein in a baculovirus expression system (Carna Biosciences, Product #08-445-20N). The assay was conducted in black 384-well polystyrene plates in a final reaction volume of 20 μL. JAK2 JH1 (1.5 nM) was incubated with compounds (100 nL serially diluted in DMSO) in the presence of 50 nM Fluorescent JAK2-JH1 Tracer and 0.5 nM Streptavidin-Tb cryptate (Cisbio Part #610SATLB) in assay buffer (50 mM Tris, pH=7.5, 10 mM MgCl2, 0.01% Brij-35, 0.1% BSA, 1 mM EGTA, 5% Glycerol and 5 mM DTT). Non-specific binding was accessed in the presence of 2 mM ATP. After incubation for 2 hours at 25° C., LanthaScreen signals were read on a PHERAstar FS plate reader (BMG LABTECH). Data was analyzed with IDBS XLfit and GraphPad Prism 5.0 software using a four parameter dose response curve to determine IC50 for each compound.

[3] = target: T3, pseudo-kinase domain (JH2, amino-acids 536-812) of human Wild Type JAK2 (Homo sapiens, UniProt O60674, F794H/W659A/W777A); assay: JAK2 LanthaScreen JH2-WT Binding Assay; conditions: 1 hour at 25° C.
T3 construct: pseudo-kinase domain (JH2, amino-acids 536-812 with 3 surface mutations W659A, W777A, F794H); purchased BPS Bioscience 79463; host or cells: baculovirus expression system
Description: Example B. JAK2 LanthaScreen JH2-WT Binding Assay
as §1, with “JH2-WT” for “JH2-V617F”, “Wild Type” for “V617F mutant”, “#79463).” for “#79498).”, “JH2-WT (0.145” for “JH2-V617F (0.26”

[4] = target: T4, catalytic domain (JH1, amino acids 808-1132) of human JAK2 (Homo sapiens, UniProt O60674); assay: JAK2 HTRF Enzyme Activity Assay; format: biochemical; conditions: ATP 30 μM, read-out: ENZ 30UMATP
T4 construct: catalytic domain (JH1, amino acids 808-1132) of human JAK2; His (N); purchased BPS Bioscience 40450; host or cells: baculovirus expression system
Description: Example D. JAK2 HTRF Enzyme Activity Assay
JAK2 enzyme activity assays utilize catalytic domain (JH1, amino acids 808-1132) of human JAK2 expressed as N-terminal His-tagged protein in a baculovirus expression system (BPS Bioscience, Catalog #40450). The assays was conducted in black 384-well polystyrene plates in a final reaction volume of 20 μL. JAK2 (0.015 nM) was incubated with compounds (100 nL serially diluted in DMSO) in the presence of ATP (30 μM or 1 mM) and 500 nM Biotin-labeled EQEDEPEGDYFEWLE (SEQ ID NO.: 1) peptide (BioSource International, custom synthesis) in assay buffer (50 mM Tris, pH=7.5, 10 mM MgCl2, 0.01% Brij-35, 0.1% BSA, 1 mM EGTA, 5% Glycerol and 5 mM DTT) for 60 minutes at 25° C. The reactions were stopped by the addition of 10 μL of detection buffer (50 mM Tris, pH 7.8, 0.5 mg/mL BSA, 150 mM NaCl), supplemented with EDTA, LANCE Eu-W1024 anti-phosphotyrosine (PY20), (PerkinElmer, Catalog #AD0067) and Streptavidin SureLight APC (PerkinElmer Catalog #CR130-100), for a final concentration of 15 mM, 1.5 nM and 75 nM, respectively. HTRF signals were read after 30 minutes incubation at room temperature on a PHERAstar FS plate reader (BMG LABTECH). Data was analyzed with IDBS XLfit and GraphPad Prism 5.0 software using a four parameter dose response curve to determine IC50 for each compound.

**Q.** For “4-(1′-(1-(Cyanomethyl)cyclobutyl)-2-(1-(2,2-difluoroethyl)-1H-pyrazol-4-yl)-6-methyl-7-oxo-6,7-dihydro-3H-spiro[dipyrrolo[2,3-b:3′,2′-d]pyridine-8,4′-piperidin]-1′-yl)cyclobutyl)acetonitrile, trifluoroacetate salt [Example 51]”, which IC50 [1] is on record?
**A.** ≤ 100 nM

**Q.** What about the IC50 [2] of the same substance?
**A.** 500 to 1250 nM

**Q.** And the IC50 [3]?
**A.** ≤ 100 nM

**Q.** What about the IC50 [4] of the same substance?
**A.** 500 to 1250 nM
